{"source": "patent US20260373169A1", "about": "“SYNERGISTIC COMBINATION FOR THE TREATMENT OF CANCER” (FUNDACIÓN UNIVERSITARIA SAN ANTONIO (UCAM), priority 2023, published 2026)", "origin": "cited, not measured here", "system": "MDA-MB-231 cells", "conditions": "cited from earlier work", "note": "Read-outs that look alike come from different tables or passages of the source.", "data": [{"smiles": "COc1cccc2c1C(=O)c1c(O)c3c(c(O)c1C2=O)C[C@@](O)(C(=O)CO)C[C@@H]3O[C@H]1C[C@H](N)[C@H](O)[C@H](C)O1", "note": "[Doxorubicin, (7S,9S)-7-[(2R,4S,5S,6S)-4-amino-5-hydroxy-6 methyloxan-2-yl]oxy-6,9,11-trihydroxy-9-(2-hydroxyacetyl)-4-methoxy-8,10-dihydro-7H tetracene-5,12-dione]", "values": [{"measurement": "cell viability, of untreated control", "setting": "0.05 nM Doxorubicin alone", "value": 54, "unit": "%"}, {"measurement": "cell viability, of untreated control", "setting": "0.1 nM Doxorubicin alone", "value": 48, "unit": "%"}]}]}
